Test results as given in patent US5747336A, “Cloned human genes for muscarinic acetylcholine receptors and cells lines expressing same” (The United States of America as represented by the …, priority 1994, dated 1998).

Chains of the proteins cited; added tags and fusions are not shown. Lines headed by an entry give the natural chain unless they say otherwise; changes in a name come on top.
UniProt P08482: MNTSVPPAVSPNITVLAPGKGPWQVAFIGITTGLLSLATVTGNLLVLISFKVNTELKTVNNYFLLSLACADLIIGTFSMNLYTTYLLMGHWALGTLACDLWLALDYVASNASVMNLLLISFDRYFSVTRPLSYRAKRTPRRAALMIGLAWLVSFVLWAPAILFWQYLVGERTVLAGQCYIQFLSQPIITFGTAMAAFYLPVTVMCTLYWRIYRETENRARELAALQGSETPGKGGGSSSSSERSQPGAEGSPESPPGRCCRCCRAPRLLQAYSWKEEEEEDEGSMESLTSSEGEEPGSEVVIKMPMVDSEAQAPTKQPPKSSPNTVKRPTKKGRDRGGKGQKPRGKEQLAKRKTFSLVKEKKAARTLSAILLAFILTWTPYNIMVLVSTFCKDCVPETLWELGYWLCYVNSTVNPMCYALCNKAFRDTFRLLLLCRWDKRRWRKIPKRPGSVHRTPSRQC

Molecular target: rat m1 receptor (Rm1) (Rattus norvegicus, UniProt P08482)
Settings: Rm1 in CHO cell membranes; direct binding of 3H-NMS

C[N+]1(C)C2CC(OC(=O)C(CO)c3ccccc3)CC1C1OC12 (single isomer, unassigned) [^3 H-NMS, N-methylscopolamine]
Bmax: 180 ± 43 fmol/mg protein
